In patent publication US20240109898A1, “SUBSTITUTED PYRAZOLO[1,5-A]PYRIMIDINE-7-AMINE DERIVATIVES, COMPOSITIONS AND PHARMACEUTICAL USES THEREOF” (SHANGHAI HAIYAN PHARMACEUTICAL TECHNOLOGY CO., LTD., priority 2021, published 2024) one finds IC50 data, which are given here for two compounds.

Amino acid sequences for entries named in this document (tags omitted).
UniProt P50750, whole entry: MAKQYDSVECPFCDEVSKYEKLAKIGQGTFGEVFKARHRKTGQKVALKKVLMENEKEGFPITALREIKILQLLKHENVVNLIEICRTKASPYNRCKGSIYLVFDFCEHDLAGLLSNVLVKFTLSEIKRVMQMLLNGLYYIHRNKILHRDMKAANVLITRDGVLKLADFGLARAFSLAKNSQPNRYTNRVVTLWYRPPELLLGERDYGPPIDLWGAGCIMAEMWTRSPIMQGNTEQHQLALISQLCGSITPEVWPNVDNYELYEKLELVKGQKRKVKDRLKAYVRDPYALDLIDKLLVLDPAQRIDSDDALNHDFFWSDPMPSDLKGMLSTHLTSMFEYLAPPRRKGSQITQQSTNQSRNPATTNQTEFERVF
UniProt P06493, whole entry: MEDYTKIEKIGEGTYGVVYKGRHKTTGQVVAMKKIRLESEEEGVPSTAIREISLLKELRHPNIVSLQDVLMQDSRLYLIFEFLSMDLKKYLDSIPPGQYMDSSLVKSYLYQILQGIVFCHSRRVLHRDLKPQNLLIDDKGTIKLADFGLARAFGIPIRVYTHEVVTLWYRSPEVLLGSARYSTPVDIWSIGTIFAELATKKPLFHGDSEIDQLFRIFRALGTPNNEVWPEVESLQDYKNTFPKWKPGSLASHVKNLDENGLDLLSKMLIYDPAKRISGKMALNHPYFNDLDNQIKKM
UniProt O60563, whole entry partner: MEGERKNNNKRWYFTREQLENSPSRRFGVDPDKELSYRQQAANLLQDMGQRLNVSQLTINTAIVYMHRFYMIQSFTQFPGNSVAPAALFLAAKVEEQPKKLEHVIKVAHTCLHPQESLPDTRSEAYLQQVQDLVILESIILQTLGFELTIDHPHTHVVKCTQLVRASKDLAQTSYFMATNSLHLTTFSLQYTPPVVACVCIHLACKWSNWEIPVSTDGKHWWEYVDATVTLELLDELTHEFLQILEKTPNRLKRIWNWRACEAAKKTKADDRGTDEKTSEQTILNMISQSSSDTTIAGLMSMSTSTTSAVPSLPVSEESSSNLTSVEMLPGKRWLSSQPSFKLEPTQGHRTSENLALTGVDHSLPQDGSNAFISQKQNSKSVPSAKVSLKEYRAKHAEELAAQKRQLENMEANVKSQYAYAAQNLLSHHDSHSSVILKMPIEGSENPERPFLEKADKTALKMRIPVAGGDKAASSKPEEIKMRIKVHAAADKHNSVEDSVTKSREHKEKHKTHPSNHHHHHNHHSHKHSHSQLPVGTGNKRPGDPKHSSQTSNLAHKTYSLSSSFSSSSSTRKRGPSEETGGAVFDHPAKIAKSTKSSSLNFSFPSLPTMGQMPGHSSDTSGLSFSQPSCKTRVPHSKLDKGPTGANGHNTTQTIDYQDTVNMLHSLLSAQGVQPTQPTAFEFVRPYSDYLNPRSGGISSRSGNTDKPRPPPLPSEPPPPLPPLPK
UniProt P14635, whole entry partner: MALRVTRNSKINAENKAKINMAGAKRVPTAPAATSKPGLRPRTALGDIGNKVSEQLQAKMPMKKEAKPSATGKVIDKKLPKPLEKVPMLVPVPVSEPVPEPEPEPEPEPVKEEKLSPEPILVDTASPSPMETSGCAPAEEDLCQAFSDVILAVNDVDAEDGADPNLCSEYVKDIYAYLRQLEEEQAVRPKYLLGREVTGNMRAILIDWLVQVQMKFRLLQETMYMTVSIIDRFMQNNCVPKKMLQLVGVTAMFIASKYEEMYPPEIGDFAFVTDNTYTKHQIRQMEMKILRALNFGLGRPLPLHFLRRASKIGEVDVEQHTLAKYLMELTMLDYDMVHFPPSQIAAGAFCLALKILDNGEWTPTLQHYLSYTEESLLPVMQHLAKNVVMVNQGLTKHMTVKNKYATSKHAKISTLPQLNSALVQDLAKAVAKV

Where only a bound is given, the exact number is not on record here.

The target in test [1] is CDK9/CycT (Homo sapiens (Human), UniProt P50750). Description: LANCE Ultra kinase activity inhibition assay, CDK9/CycT. The settings on record: read-out: CDK9 (IC50/μM), ATP 10 μM, highest compound concentration 1 μM. A general note: TR-FRET usually uses a lanthanide donor and a delayed reading to cut background.
For test [2], the target named is CDK2/CycA (Homo sapiens (Human), UniProt P24941). Description: LANCE Ultra kinase activity inhibition assay, CDK2/CycA. The test is classed as biochemical. The conditions noted are these: read-out: CDK2 (IC50/μM), ATP 10 μM, highest compound concentration 10 μM.
For test [3], the target named is CDK1/CycB (Homo sapiens (Human), UniProt P06493). Description: LANCE Ultra kinase activity inhibition assay, CDK1/CycB. The test is classed as biochemical. The conditions noted are these: read-out: CDK1 (IC50/μM), ATP 4 μM, highest compound concentration 10 μM.

`CC(=N)N[C@H]1CC[C@H](Nc2cc([C@@H](C)C3CC3)nc3c(Cl)cnn23)C1`: the IC50 stood at 0.011 µM in test [1], 1.23 µM in test [2] and 2.09 µM in test [3].

Take `CC(=N)N[C@H]1CC[C@H](Nc2cc(C(C3CC3)C3CC3)nc3c(C)cnn23)C1`: the figures for the IC50 in test [1], in test [2] and in test [3] were 0.034 µM, > 10 µM and > 10 µM, respectively.
